Test results taken from patent US20170137504A1 (TERACLON IDF S L, published 2017).

The chains behind the UniProt entries cited, without tags or fusion partners. A line that says so, or that is headed by a name, gives the form on record, which may keep a tag or linker.
UniProt P15692, other isoform, or with tags, fused parts or gaps limits assumed: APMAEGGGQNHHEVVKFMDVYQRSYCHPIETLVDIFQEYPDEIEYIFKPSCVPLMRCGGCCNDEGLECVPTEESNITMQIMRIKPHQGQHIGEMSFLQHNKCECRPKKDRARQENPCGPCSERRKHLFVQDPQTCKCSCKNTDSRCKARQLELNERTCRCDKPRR

Molecular target: VEGF (4 ng/mL, added in the in vitro angiogenesis assay) (UniProt P15692-4 27-191, limits assumed)
Test: cell-based or functional assay

IC50, average value (in vitro angiogenesis, HUVEC/NHDF co-culture): 47.6 µg/mL
IC50, branching points (in vitro angiogenesis, HUVEC/NHDF co-culture): 37.5 µg/mL
IC50, length of the tubes (in vitro angiogenesis, HUVEC/NHDF co-culture): 57.6 µg/mL
B1: Reference antibody (Genentech/Roche), Ranibizumab (Fab, V domains shown)
VH: EVQLVESGGGLVQPGGSLRLSCAASGYDFTHYGMNWVRQAPGKGLEWVGWINTYTGEPTYAADFKRRFTFSLDTSKSTAYLQMNSLRAEDTAVYYCAKYPYYYGTSHWYFDVWGQGTLVTVSS
VL: DIQLTQSPSSLSASVGDRVTITCSASQDISNYLNWYQQKPGKAPKVLIYFTSSLHSGVPSRFSGSGSGTDFTLTISSLQPEDFATYYCQQYSTVPWTFGQGTKVEIKR
